Results from patent US6462038B1, “Androgen receptor modulator compounds and methods” (Ligand Pharmaceuticals, Inc., priority 1999, dated 2002).

Protein sequences, listed by entry. Tags and fused reporters are not part of them. Lines headed by an entry give the natural chain unless they say otherwise; changes in a name come on top.
UniProt P10275: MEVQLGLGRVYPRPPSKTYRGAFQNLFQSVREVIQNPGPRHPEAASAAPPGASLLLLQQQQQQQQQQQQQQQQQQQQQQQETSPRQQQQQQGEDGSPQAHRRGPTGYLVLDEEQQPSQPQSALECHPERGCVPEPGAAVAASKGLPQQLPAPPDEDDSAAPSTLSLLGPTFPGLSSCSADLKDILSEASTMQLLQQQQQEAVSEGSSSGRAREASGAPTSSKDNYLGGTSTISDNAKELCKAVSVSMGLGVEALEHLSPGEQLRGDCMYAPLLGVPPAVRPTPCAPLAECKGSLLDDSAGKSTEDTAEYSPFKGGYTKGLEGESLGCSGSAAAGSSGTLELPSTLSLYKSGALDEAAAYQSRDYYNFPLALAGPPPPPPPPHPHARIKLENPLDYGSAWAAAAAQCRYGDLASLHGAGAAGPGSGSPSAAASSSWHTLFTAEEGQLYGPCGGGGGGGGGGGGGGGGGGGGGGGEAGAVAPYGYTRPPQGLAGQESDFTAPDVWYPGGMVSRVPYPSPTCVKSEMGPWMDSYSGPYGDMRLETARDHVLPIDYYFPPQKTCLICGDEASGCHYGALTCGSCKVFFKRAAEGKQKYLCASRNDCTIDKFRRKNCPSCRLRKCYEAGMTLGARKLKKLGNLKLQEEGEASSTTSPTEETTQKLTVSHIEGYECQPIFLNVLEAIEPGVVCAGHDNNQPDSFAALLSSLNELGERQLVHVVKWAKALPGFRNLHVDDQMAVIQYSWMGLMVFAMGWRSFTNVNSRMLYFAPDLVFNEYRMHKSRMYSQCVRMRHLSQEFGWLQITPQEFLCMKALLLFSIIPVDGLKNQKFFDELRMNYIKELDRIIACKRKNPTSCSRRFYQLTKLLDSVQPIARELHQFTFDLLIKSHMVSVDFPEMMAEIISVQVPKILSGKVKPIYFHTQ

Key:
hAR [1] = target: T1, hAR (Homo sapiens, UniProt P10275); assay: co-transfection assay, AR antagonist (in presence of DHT), CV-1 cells; format: cell-based; settings: hAR in CV-1 cells; maximal inhibition, DHT at EC50
T1 construct: expressed in transfected cells; host or cells: CV-1 cells (African green monkey kidney fibroblasts)

hAR [2] = target: T1, hAR; assay: co-transfection assay, AR agonist, CV-1 cells; format: cell-based; settings: hAR in CV-1 cells; relative to maximum LUC production by reference agonist

| SMILES | AR Antagonist CV-1 Cells Efficacy (%) (hAR [1]) | AR Agonist CV-1 Cells Efficacy (%) (hAR [2]) |
| --- | --- | --- |
| CN1CCOc2cc3[nH]c(=O)cc(C(F)(F)F)c3cc21 [Compound 101, 1,2,3,6-Tetrahydro-1-methyl-9-(trifluoromethyl)-7H-[1,4]oxazino[3,2-g]quinolin-7-one] | na (na = not active (i.e. efficacy of < 20 and potency of > 10,000 nM for the cotransfection assay, and Ki > 1000 nM for the binding assay)) | 56 |
| CC1CN(C)c2cc3c(C(F)(F)F)cc(=O)[nH]c3cc2O1 (racemic) [Compound 117, (±)-1,2,3,6-Tetrahydro-1,3-dimethyl-9-(trifluoromethyl)-7H-[1,4]oxazino[3,2-g]quinolin-7-one] | na (na = not active (i.e. efficacy of < 20 and potency of > 10,000 nM for the cotransfection assay, and Ki > 1000 nM for the binding assay)) | 36 |
| CC1CN(CC(F)(F)F)c2cc3c(C(F)(F)F)cc(=O)[nH]c3cc2O1 (single isomer, unassigned; (+)) [Compound 116, (+)-1,2,3,6-tetrahydro-3-methyl-1-(2,2,2-trifluoroethyl)-9-(trifluoromethyl)-7H-[1,4]oxazino[3,2-g]quinolin-7-one] | 35% | 24 |
| CC1CN(CC(F)(F)F)c2cc3c(C(F)(F)F)cc(=O)[nH]c3cc2O1 (single isomer, unassigned; (-)) [Compound 115, (−)-1,2,3,6-Tetrahydro-3-methyl-1-(2,2,2-trifluoroethyl)-9-(trifluoromethyl)-7H-[1,4]oxazino[3,2-g]quinolin-7-one] | na (na = not active (i.e. efficacy of < 20 and potency of > 10,000 nM for the cotransfection assay, and Ki > 1000 nM for the binding assay)) | 82 |
| CCN1CCOc2cc3[nH]c(=O)cc(C(F)(F)F)c3cc21 [Compound 103, 1-Ethyl-1,2,3,6-tetrahydro-9-(trifluoromethyl)-7H-[1,4]oxazino[3,2-g]quinolin-7-one] |  | 92 |
| CCC1CN(C)c2cc3c(C(F)(F)F)cc(=O)[nH]c3cc2O1 (racemic) [Compound 119, (±)-3-Ethyl-1,2,3,6-tetrahydro-1-methyl-9-(trifluoromethyl)-7H-[1,4]oxazino[3,2-g]quinolin-7-one] | na (na = not active (i.e. efficacy of < 20 and potency of > 10,000 nM for the cotransfection assay, and Ki > 1000 nM for the binding assay)) | 20 |
| CCCN1CCOc2cc3[nH]c(=O)cc(C(F)(F)F)c3cc21 [Compound 111, 1,2,3,6-Tetrahydro-1-propyl-9-(trifluoromethyl)-7H-[1,4]oxazino[3,2-g]quinolin-7-one] | na (na = not active (i.e. efficacy of < 20 and potency of > 10,000 nM for the cotransfection assay, and Ki > 1000 nM for the binding assay)) | 88 |
| CCC1CN(CC(F)(F)F)c2cc3c(C(F)(F)F)cc(=O)[nH]c3cc2O1 (racemic) [Compound 118, (±)-3-Ethyl-1,2,3,6-tetrahydro-1-(2,2,2-trifluoroethyl)-9-(trifluoromethyl)-7H-[1,4]oxazino[3,2-g]quinolin-7-one] | na (na = not active (i.e. efficacy of < 20 and potency of > 10,000 nM for the cotransfection assay, and Ki > 1000 nM for the binding assay)) | 76 |
| CC1CN(CC(F)(F)F)c2cc3c(C(F)(F)F)cc(=O)[nH]c3cc2O1 (racemic) [Compound 114, (±)-1,2,3,6-Tetrahydro-3-methyl-1-(2,2,2-trifluoroethyl)-9-(trifluoromethyl)-7H-[1,4]oxazino[3,2-g]quinolin-7-one] | na (na = not active (i.e. efficacy of < 20 and potency of > 10,000 nM for the cotransfection assay, and Ki > 1000 nM for the binding assay)) | 94 |
| O=c1cc(C(F)(F)F)c2cc3c(cc2[nH]1)OCCN3CC(F)(F)F [Compound 105, 1,2,3,6-Tetrahydro-1-(2,2,2-trifluoroethyl)-9-(trifluoromethyl)-7H-[1,4]oxazino[3,2-g]quinolin-7-one] | na (na = not active (i.e. efficacy of < 20 and potency of > 10,000 nM for the cotransfection assay, and Ki > 1000 nM for the binding assay)) | 88 |
| CC(C)CN1CCOc2cc3[nH]c(=O)cc(C(F)(F)F)c3cc21 [Compound 112, 1,2,3,6-Tetrahydro-1-isobutyl-9-(trifluoromethyl)-7H-[1,4]oxazino[3,2-g]quinolin-7-one] | na (na = not active (i.e. efficacy of < 20 and potency of > 10,000 nM for the cotransfection assay, and Ki > 1000 nM for the binding assay)) | 80 |
